From ChEMBL document CHEMBL1134287, “Design and pharmacological activity of phosphinic acid based NAALADase inhibitors” (J Med Chem, 2001)

By UniProt entry, the sequences of proteins in these tests, tags left out.
UniProt P70627, whole entry: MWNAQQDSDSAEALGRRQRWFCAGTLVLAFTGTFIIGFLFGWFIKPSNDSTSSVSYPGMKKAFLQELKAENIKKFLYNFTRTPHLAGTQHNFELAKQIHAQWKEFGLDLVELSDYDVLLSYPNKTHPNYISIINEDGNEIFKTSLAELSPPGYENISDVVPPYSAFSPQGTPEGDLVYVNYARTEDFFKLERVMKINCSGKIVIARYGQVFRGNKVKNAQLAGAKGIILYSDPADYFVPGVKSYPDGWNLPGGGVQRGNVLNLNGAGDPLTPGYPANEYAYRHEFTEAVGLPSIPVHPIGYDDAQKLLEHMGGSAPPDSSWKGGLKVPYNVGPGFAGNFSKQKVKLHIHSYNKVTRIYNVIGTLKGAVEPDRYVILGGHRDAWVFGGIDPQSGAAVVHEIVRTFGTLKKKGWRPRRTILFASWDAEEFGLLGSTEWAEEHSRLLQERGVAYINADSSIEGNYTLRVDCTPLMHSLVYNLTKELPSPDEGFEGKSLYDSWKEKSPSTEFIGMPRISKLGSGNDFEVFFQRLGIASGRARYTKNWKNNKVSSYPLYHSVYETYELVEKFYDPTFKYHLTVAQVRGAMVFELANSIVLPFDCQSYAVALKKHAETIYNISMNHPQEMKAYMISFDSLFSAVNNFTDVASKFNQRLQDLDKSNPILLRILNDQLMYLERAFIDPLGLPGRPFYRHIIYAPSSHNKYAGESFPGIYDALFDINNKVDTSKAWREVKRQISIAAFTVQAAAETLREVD

Biological target: Glutamate carboxypeptidase 2 (Rattus norvegicus, UniProt P70627)
Test: Inhibitory concentration against rat brain NAALADase (Folate hydrolase)
In short: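 IC50 values were determined by a method described elsewhere, from two to four independent determinations each. The values refer to racemic material.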

- IC50: 4 nM
Structure (SMILES): O=C(O)CCC(CP(=O)(O)CNc1ccccc1)C(=O)O (stereo unspecified)
